The values below come from publication PMC9032693, “Biological Evaluation of New Thienopyridinium and Thienopyrimidinium Derivatives as Human Choline Kinase Inhibitors” (Pharmaceutics, 2022).

By UniProt entry, the sequences of proteins in these tests, tags left out. Residues count along the entry.
UniProt P35790, 75-457 limits assumed: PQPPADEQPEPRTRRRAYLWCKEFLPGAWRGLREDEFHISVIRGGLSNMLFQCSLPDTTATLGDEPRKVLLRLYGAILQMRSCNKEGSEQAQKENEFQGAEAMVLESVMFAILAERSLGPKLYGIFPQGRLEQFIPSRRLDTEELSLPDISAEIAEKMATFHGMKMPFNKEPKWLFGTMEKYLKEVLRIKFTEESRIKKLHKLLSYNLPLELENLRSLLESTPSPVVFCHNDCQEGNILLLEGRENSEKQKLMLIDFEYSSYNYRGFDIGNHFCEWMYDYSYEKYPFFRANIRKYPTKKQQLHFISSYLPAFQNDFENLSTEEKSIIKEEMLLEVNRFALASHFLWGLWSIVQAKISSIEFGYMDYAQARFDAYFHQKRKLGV

One test concerns the target CKα1 (Homo sapiens, UniProt P35790). Nature of the test: Choline kinase assay ([methyl-14C]choline into PCho, purified enzyme). As to conditions: tested form: bromide; for % Inhibition at 10 µM: purified CKα1, inhibitor 10 µM; for % Inhibition at 10 µM / % Inhibition at 30 µM: end-point assay; for % Inhibition at 30 µM: purified CKα1, inhibitor 30 µM; for IC50: read-out: IC50 CKα, concentration required to inhibit CKα1 enzyme by 50%. The format is biochemical.

The test system of the next test is HepG2 cells. The test can be described thus: Choline uptake assay ([methyl-14C]choline). As to conditions: HepG2, 24 h, tested form: bromide.
For the next test, the system named is RS 4;11. The test can be described thus: Antiproliferative activity, resazurin assay, 72 h. As to conditions: read-out: GI50 RS 4;11, tested form: bromide.
For a further test, the system named is Jurkat. Nature of the test: Antiproliferative activity, resazurin assay, 72 h. As to conditions: read-out: GI50 Jurkat, tested form: bromide.
Another test concerns HT29. The test can be described thus: Antiproliferative activity, resazurin assay, 72 h. As to conditions: read-out: GI50 HT29, tested form: bromide.
The subject of a further test is A549. Nature of the test: Antiproliferative activity, resazurin assay, 72 h. As to conditions: read-out: GI50 A549, tested form: bromide.
Another test concerns HeLa. Nature of the test: Antiproliferative activity, resazurin assay, 72 h. As to conditions: read-out: GI50 HeLa, tested form: bromide.
The test system of another test is HL-60. The test can be described thus: Antiproliferative activity, resazurin assay, 72 h. As to conditions: read-out: GI50 HL-60, tested form: bromide.
The test system of another test is SEM cells. The test can be described thus: Antiproliferative activity, resazurin assay, 72 h. As to conditions: read-out: GI50 SEM, tested form: bromide.
The subject of a further test is MDA-MB-231. The test can be described thus: Antiproliferative activity, resazurin assay, 72 h. As to conditions: read-out: GI50 MDA-MB-231, tested form: bromide.

As to `c1ccc(-c2ccc(C[n+]3cnc(N4CCCC4)c4sccc43)cc2)cc1`, the “% Inhibition at 10 µM” value on CKα1 came out at 34.59%. Also, at CKα1, the “% Inhibition at 30 µM” value turned out to be 31.68%. At CKα1, the half-maximal inhibitory concentration (IC50) is no less than 50 µM. For the same molecule, the “% Inhibition Choline Uptake at 1 μM” value with HepG2 cells (1 μM) is given as 49.93 ± 1.72%. Moreover, the “% Inhibition Choline Uptake at 10 μM” value in the test with HepG2 cells (10 μM) was determined as 85.12 ± 1.35%. Besides, the GI50 with RS 4;11 was found to be 0.68 µM; in the test with Jurkat, 4.24 µM; in the test with HT29, 0.58 µM; in the test on A549, 0.39 µM; with HeLa it was 0.41 µM; with HL-60, 0.15 µM. Further, the GI50 stood at 1.47 µM with SEM cells and 0.62 µM in the test on MDA-MB-231.
With `c1ccc(-c2ccc(C[n+]3ccc(N4CCCC4)c4sccc43)cc2)cc1`, the “% Inhibition at 10 µM” value on CKα1 stood at 30.24%. The “% Inhibition at 30 µM” value on CKα1 is on record as 35.06%. Moreover, the IC50 at CKα1 is no less than 50 µM. In addition, the 50% growth inhibitory concentration (GI50) in the test on RS 4;11 was 0.56 µM; with Jurkat it was 2.4 µM; in the test on HT29, 0.4 µM; in the test on A549, 3.5 µM; with HeLa it was 0.38 µM; in the test on HL-60 it was 0.13 µM. The GI50 in the test with SEM cells came out at 0.96 µM; in the test on MDA-MB-231 it was 0.81 µM.
Turning to `c1ccc(-c2ccc(C[n+]3cnc(N4CCCC4)c4ccsc43)cc2)cc1`, at CKα1, the “% Inhibition at 10 µM” value worked out at 34.42%, the “% Inhibition at 30 µM” value was 37.94% and the concentration for half-maximal inhibition (IC50) is no less than 50 µM.
